Measured values published in ChEMBL document CHEMBL3352549, “Discovery, biological evaluation, and crystal structure of a novel nanomolar selective butyrylcholinesterase inhibitor” (J Med Chem, 2014).
pIC50: −log10 of the molar value.

Protein sequences, listed by entry. Tags and fused reporters are not part of them. Lines headed by an entry give the natural chain unless they say otherwise; changes in a name come on top.
UniProt P22303: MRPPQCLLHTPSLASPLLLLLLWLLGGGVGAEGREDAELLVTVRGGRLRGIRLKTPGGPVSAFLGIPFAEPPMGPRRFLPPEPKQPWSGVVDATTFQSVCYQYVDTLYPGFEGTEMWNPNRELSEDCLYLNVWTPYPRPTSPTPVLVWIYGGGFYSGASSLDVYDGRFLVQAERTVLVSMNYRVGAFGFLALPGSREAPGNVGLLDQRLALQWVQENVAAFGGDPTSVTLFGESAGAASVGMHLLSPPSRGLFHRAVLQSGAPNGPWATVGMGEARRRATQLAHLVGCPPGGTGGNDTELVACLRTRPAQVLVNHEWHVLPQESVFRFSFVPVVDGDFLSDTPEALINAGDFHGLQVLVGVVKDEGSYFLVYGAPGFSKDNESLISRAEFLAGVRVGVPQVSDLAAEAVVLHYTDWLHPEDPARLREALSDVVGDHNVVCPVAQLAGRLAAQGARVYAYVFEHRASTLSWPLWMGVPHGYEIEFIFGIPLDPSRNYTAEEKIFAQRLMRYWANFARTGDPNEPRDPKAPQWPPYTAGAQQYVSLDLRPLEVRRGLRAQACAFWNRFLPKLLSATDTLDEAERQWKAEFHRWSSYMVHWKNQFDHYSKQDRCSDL

Molecular target: Acetylcholinesterase (Homo sapiens, UniProt P22303)

CC(C)c1ccc(NC(=O)Oc2ccc3c(c2)[C@]2(C)CCN(C)[C@@H]2N3C)cc1 [4-ISOPROPYLPHENSERINE]
pIC50: 6.12
